Results from patent US8022102B2, “Unsaturated tetracyclic tetrahydrofuran derivatives” (Janssen Pharmaceutica, NV, priority 2004, dated 2011).

Amino acid sequences for entries named in this document (tags omitted). A change or cut given only in a name is not applied to a line headed by its entry. Residues count along the entry.
UniProt Q9WTR4, 1-597: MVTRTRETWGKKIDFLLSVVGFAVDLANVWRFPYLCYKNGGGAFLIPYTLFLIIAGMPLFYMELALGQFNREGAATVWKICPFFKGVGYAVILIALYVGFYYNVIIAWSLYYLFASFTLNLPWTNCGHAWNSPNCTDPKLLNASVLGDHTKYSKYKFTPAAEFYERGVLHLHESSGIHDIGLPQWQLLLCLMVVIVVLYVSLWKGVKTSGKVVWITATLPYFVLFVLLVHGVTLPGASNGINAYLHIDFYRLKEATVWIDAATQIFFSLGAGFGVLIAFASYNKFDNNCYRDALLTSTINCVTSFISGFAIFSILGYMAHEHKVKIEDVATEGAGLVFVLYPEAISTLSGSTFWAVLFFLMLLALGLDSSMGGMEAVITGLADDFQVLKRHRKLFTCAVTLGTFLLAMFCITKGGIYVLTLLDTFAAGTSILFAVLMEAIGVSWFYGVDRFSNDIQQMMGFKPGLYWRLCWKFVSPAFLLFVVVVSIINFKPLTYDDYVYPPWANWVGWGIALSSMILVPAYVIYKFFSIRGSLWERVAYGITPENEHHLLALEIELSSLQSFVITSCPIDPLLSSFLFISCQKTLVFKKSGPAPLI
UniProt P28223, whole entry: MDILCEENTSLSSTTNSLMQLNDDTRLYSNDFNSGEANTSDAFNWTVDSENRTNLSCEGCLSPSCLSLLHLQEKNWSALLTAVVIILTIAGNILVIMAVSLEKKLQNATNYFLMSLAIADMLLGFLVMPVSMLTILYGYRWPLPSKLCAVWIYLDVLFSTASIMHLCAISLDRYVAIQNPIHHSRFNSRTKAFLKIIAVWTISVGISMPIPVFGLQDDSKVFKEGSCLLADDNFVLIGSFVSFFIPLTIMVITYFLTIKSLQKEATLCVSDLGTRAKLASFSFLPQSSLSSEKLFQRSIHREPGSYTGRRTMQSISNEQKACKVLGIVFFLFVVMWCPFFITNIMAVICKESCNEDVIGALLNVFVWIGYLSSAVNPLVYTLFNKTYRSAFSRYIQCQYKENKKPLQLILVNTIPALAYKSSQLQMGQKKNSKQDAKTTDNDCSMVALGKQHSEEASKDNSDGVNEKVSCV
UniProt P14416, whole entry: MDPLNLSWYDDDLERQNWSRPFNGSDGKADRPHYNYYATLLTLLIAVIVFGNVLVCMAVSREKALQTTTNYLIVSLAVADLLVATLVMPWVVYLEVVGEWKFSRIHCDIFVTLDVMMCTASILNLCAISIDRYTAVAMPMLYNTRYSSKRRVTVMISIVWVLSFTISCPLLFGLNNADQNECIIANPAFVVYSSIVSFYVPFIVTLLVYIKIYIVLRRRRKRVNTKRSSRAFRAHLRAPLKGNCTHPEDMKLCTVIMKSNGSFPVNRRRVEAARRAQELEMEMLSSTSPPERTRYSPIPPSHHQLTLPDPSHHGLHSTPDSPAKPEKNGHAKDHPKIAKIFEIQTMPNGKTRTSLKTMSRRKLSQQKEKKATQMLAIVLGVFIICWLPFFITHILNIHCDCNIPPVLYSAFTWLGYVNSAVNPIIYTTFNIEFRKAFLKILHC
UniProt P28335, 33-458: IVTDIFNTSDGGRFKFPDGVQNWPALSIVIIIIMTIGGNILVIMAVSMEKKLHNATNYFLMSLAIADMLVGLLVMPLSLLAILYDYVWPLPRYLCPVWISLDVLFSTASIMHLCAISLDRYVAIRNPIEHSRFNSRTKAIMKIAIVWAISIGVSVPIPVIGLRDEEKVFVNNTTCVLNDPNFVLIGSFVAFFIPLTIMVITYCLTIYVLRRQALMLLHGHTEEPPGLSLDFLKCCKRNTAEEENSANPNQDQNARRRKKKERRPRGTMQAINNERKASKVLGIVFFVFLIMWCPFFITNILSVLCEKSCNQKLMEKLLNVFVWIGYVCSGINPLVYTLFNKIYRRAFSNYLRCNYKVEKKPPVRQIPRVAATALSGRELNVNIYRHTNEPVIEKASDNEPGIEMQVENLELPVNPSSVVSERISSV

How the values were obtained:
[1] = target: T1, NET (Rattus norvegicus, UniProt Q9WTR4); assay: In vitro determination of NET reuptake inhibition ([3H]Nixosetine binding, rat brain cortex); details: read-out: NET Reuptake Inhibition (converted)
T1 construct: Cortex from rat brain was collected and homogenised; from tissue; host or cells: rat brain cortex
Description: Cortex from rat brain was collected and homogenised using an Ultra-Turrax T25 and a Dual homogeniser in ice-cold homogenising buffer containing Tris, NaCl and KCl (50 mM, 120 mM and 5 mM, respectively, pH 7.4) prior to dilution to an appropriate protein concentration optimised for specific and non-specific binding. […] Membrane-bound activity was detected by filtration through a Packard Filtermate harvester onto GF/B Unifilterplates, washed with ice-cold Tris-HCl buffer, containing NaCl and KCl (50 mM, 120 mM and 4 mM; pH 7.4; 6×0.5 ml). Filters were allowed to dry for 24 h before adding scintillation fluid. Scintillation fluid was allowed to saturate filters for 24 h before counting in a Topcount scintillation counter. Percentage specific bound and competition binding curves were calculated using S-Plus software (Insightful).

[2] = target: T2, human cloned 5-HT2A receptor (Homo sapiens, UniProt P28223); assay: In vitro binding affinity for 5-HT2A receptor (radioligand binding); details: read-out: h-5HT2A (converted)
T2 construct: expressed in transfected cells; host or cells: L929 cells
Description: (§1) The interaction of the compounds of Formula (I) with 5-HT2A and 5-HT2C receptors was assessed in in vitro radioligand binding experiments. […] During the incubation, the radioligands bind to the receptor. When equilibrium of binding is reached, the receptor bound radioactivity is separated from the non-bound radioactivity, and the receptor bound activity is counted. The interaction of the test compounds with the receptors is assessed in competition binding experiments. Various concentrations of the test compound are added to the incubation mixture containing the tissue preparation and the radioligand. Binding of the radioligand will be inhibited by the test compound in proportion to its binding affinity and its concentration. The affinities of the compounds for the 5-HT2 receptors were measured by means of radioligand binding studies conducted with: (a) human cloned 5-HT2A receptor, expressed in L929 cells using [^125I]R91150 as radioligand and (b) human cloned 5-HT2C receptor, expressed in CHO cells using [^3H]mesulergine as radioligand.

[3] = target: T3, human Dopamine D2L receptor (Homo sapiens, UniProt P14416); assay: In vitro binding affinity for human D2L receptor ([3H]Spiperone); details: human D2L receptor-transfected CHO cell membranes
T3 construct: expressed in transfected cells; host or cells: CHO cells
Description: Frozen membranes of human Dopamine D2L receptor-transfected CHO cells were thawed, briefly homogenised using an Ultra-Turrax T25 homogeniser and diluted in Tris-HCl assay buffer containing NaCl, CaCl2, MgCl2, KCl (50, 120, 2, 1, and 5 mM respectively, adjusted to pH 7.7 with HCl) to an appropriate protein concentration optimised for specific and non-specific binding. Radioligand [^3H]Spiperone (NEN, specific activity ˜70 Ci/mmol) was diluted in assay buffer at a concentration of 2 nmol/L. Prepared radioligand (50 μl), along with 50 μl of either the 10% DMSO control, Butaclamol (10^−6 mol/l final concentration), or compound of interest, was then incubated (30 min, 37° C.) with 400 μl of the prepared membrane solution. Membrane-bound activity was filtered through a Packard Filtermate harvester onto GF/B Unifilterplates and washed with ice-cold Tris-HCl buffer (50 mM; pH 7.7; 6×0.5 ml). Filters were allowed to dry before adding scintillation fluid and counting in a Topcount scintillation counter. Percentage specific bound and competition binding curves were calculated using S-Plus software (Insightful).

[4] = target: T4, human cloned 5-HT2C receptor (Homo sapiens, UniProt P28335); assay: In vitro binding affinity for 5-HT2C receptor (radioligand binding); details: read-out: h-5HT2C (converted)
T4 construct: expressed in transfected cells; host or cells: CHO cells
Description: as §1, with “concentration.” for “concentration. The affinities of the compounds for the 5-HT2 receptors were measured by means of radioligand binding studies conducted with: (a) human cloned 5-HT2A receptor, expressed in L929 cells using [^125I]R91150 as radioligand and (b) human cloned 5-HT2C receptor, expressed in CHO cells using [^3H]mesulergine as radioligand.”

Row | Structure (SMILES) | IC50 [1] | IC50 [2] | IC50 [3] | IC50 [4]
1 | CNCC1CC2=C(O1)c1cc(F)ccc1Sc1ccccc12 (single isomer, unassigned) [Compound 14] | 2.51 nM | 0.251 nM | 25.1 nM | 
2 | OC1CCN(CC2CC3=C(O2)c2cc(F)ccc2Cc2ccccc23)CC1 (stereo not shown) [Compound 36] | 6310 nM | 0.631 nM | 6.31 nM | 0.631 nM
